IC50 data for one molecule are collected here from ChEMBL document CHEMBL5729254, “Heterocyclic compound as JAK inhibitor, and salts and therapeutic use thereof” (2022).

Chains of the proteins cited; added tags and fusions are not shown. Lines headed by an entry give the natural chain unless they say otherwise; changes in a name come on top.
UniProt O60674: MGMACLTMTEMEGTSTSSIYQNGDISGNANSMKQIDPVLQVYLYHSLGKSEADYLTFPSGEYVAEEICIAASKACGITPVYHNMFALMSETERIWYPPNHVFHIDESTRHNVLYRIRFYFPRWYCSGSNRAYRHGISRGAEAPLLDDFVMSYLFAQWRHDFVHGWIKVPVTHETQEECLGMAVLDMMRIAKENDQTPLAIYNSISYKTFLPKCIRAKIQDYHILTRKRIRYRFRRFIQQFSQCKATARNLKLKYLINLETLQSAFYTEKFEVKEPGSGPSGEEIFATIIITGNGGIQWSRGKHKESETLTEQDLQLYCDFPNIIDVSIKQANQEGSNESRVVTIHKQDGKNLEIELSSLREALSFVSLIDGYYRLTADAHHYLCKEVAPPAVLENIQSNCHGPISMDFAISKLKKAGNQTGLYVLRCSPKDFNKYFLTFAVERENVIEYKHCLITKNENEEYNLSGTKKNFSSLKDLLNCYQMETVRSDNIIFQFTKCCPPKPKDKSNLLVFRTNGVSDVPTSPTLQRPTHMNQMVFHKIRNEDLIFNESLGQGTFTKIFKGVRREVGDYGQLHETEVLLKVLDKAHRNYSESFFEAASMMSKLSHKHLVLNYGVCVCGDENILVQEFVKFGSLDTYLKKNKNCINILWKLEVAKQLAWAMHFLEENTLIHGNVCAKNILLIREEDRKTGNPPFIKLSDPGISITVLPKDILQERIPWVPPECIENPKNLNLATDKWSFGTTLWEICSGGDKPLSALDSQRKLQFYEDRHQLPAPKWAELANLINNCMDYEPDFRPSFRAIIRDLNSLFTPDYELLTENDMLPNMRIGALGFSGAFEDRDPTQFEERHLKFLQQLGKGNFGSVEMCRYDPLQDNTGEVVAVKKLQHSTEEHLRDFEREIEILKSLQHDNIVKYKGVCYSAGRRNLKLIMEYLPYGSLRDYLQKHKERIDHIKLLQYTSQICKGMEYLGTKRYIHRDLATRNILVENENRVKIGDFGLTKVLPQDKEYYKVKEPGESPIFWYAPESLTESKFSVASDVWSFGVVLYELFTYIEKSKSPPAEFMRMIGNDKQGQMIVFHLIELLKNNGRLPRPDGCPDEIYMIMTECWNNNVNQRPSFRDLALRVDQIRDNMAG

The target in the assay is Tyrosine-protein kinase JAK2 (Homo sapiens, UniProt O60674).

For orientation: IC50 means the point on the concentration scale where inhibition reaches its midpoint. `CCS(=O)(=O)N1CC(CC#N)(n2cc(-c3ncnc4[nH]ccc34)cn2)C1` [BARICITINIB] showed an IC50 of 5.5 nM.
